Experiment: Agonist activity at delta opioid receptor in mouse vas deferens assessed as inhibition of electrically-stimulated muscle contraction

Compound `Cc1cc(O)cc(C)c1C[C@H](N)C(=O)N1CC(=O)N[C@@H](Cc2cnc[nH]2)C(=O)N[C@H](Cc2ccccc2)C(=O)N[C@@H](CCCN=C(N)N)C(=O)N[C@@H](Cc2c[nH]c3ccccc23)C(=O)N[C@H](C(=O)N[C@@H](CC(=O)O)C(=O)N[C@@H](Cc2ccccc2)C(N)=O)CSSC[C@@H](N)C1=O` [(S)-3-((4R,7S,10S,13R,16S,22S)-16-((1H-imidazol-5-yl)methyl)-7-((1H-indol-3-yl)methyl)-22-amino-20-((S)-2-amino-3-(4-hydroxy-2,6-dimethylphenyl)propanoyl)-13-benzyl-10-(3-guanidinopropyl)-6,9,12,15,18,21-hexaoxo-1,2-dithia-5,8,11,14,17,20-hexaazacyclotricosane-4-carboxamido)-4-((S)-1-amino-1-oxo-3-phenylpropan-2-ylamino)-4-oxobutanoic acid] has an IC50 of 410 nM.
